Results published in publication PMC10809502, “Application of a new MDCKII-MDR1 cell model to measure the extent of drug distribution in vitro at equilibrium for prediction of in vivo unbound brain-to-plasma drug distribution” (Fluids and Barriers of the CNS, 2024).

Protein sequences, listed by entry. Tags and fused reporters are not part of them. Residues count along the entry.
UniProt P02769, 25-607: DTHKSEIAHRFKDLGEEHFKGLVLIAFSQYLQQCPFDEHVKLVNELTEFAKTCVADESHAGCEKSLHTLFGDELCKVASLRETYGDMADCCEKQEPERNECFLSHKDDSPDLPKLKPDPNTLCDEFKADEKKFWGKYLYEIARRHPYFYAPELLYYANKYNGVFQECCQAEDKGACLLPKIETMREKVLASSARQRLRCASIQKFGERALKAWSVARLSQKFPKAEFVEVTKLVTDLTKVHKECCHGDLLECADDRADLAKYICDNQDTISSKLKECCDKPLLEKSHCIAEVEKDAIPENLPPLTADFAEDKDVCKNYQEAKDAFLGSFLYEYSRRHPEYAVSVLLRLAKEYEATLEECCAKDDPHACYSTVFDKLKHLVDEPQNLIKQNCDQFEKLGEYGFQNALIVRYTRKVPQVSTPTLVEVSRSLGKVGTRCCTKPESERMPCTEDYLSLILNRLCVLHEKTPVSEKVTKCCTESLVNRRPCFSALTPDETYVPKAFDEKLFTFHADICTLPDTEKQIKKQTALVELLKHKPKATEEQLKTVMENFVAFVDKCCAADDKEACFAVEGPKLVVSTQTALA

Key:
P-gp (human MDR1) [1] = assay: in vitro; conditions: dog, MDCK-MDR1, pH 7.4
[2] = cited from earlier work
[3] = molecular target: Bovine Serum Albumin (BSA) (Bos taurus, UniProt P02769); assay: Fraction unbound in 35 μM BSA, equilibrium dialysis
MDCKII-MDR1 cells = assay: Equilibrium distribution study (in vitro Kp,brain / Kp,uu,brain) across MDCKII-MDR1 cells, BSA apical, brain homogenate basolateral, Uni-L and Bi-L; conditions: 29 h, 1 μM, brain homogenate/BSA ratio
P-gp (human MDR1) [4] = assay: as above; conditions: dog, % printed

Which Papp B→A at 60 min, 0.5 μM (P-gp (human MDR1) [1]) does the source give for `Cc1nc2n(c(=O)c1CCN1CCC(c3noc4cc(F)ccc34)CC1)CCCC2` [Risperidone, risperidone] here?
The Papp B→A at 60 min, 0.5 μM was 37 ± 4 ×10⁻⁶ cm/s.

What about the “classification of brain penetration in vivo” value ([2]; Göttingen minipig Kp,uu,brain) of the same molecule?
Its value is “restricted (restricted brain penetration with Kp,uu,brain < 0.3)”.

What about the “Kp,uu,brain in vivo” value ([2]; Göttingen minipig) of the same molecule?
Its value is 0.19.

What about the fraction unbound at 5 h, 1 μM ([3]; bovine, 35 μM BSA) of the same molecule?
Its fraction unbound at 5 h, 1 μM is 0.918 ± 0.016.

And the “Predicted fu (%) BSA 35 μM (D = 20)” value ([3]; calculated with Eq. 2 from fu measured in 100% matrices (ref 20), dilution factor 20)?
Its value is 89.4%.

What about the “in vitro determined Kp,brain Bi-L” value (MDCKII-MDR1 cells; Bi-L (compound loaded both sides)) of the same molecule?
Its value is 0.79.

And the “in vitro determined Kp,brain Uni-L” value (MDCKII-MDR1 cells; Uni-L (compound loaded apically in BSA))?
Its value is 0.86.

What about the recovery at 29 h, 1 μM (P-gp (human MDR1) [4]; pH 7.5, Recovery Bi-L, mass balance Eq. 7, Bi-L) of the same molecule?
Its recovery at 29 h, 1 μM is 62%.

What about the recovery at 29 h, 1 μM (P-gp (human MDR1) [4]; pH 7.5, Recovery Uni-L, mass balance Eq. 6, Uni-L) of the same molecule?
Its recovery at 29 h, 1 μM is 75%.
